# Tests used:
# Amino acid sequences for entries named in this document (tags omitted).
# UniProt P25102, whole entry: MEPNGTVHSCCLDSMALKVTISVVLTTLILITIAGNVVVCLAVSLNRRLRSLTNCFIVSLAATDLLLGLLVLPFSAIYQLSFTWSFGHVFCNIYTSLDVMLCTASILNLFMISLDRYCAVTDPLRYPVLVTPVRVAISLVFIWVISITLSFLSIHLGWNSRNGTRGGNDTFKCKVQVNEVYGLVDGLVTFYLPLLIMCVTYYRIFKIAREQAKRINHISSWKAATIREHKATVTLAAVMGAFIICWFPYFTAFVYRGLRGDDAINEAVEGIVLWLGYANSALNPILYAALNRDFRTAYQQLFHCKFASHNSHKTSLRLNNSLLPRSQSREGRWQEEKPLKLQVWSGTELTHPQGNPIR
# [1] = molecular target: T1, histamine H2 receptors (Rattus norvegicus, UniProt P25102)
# T1 construct: the uterine horn was removed and suspended in a De Jalon solution in an organ bath; from tissue; host or cells: rat uterine horn (rats in estrus, stilbestrol-treated)
# Experimental: Rats in estrus were used and were administered 100 mcg of stilbestrol by intramuscular (i.m.) injection 30 hours before removing the uterus. On the day of the experiment, the uterine horn was removed and suspended in a De Jalon solution in an organ bath, held at 28° C. and aerated with a flow of 95% O2 and 5% CO2. Thereafter a sustained uterine contraction was induced by the addition of a KCl solution to provide a concentration in the organ bath of 4.2 mg/ml, namely, 10 times that of the De Jalon serum. The uterus was caused to relax with the addition of the amount of histamine required to obtain a good response.
# [2] = test system: gastric juices; test: Ligature of pylorus, intravenous treatment (Table B-1); format: in vivo, Male Wistar rats; details: 10 mg/kg i.v., 3 h after ligature
# Experimental: (§1) The method of […] et al. (J. Pharmac. Exp. […] Male Wistar rats, weighing from 250 to 300 grams were used. […] The rats were anesthetised with ethyl ether, a laparotomy was performed and the pylorus was ligatured. The abdominal incision was then sewn. Treatment was effected: (B-1) intravenously, through the femoral vein. (B-2) intraduodenally, prior to sewing the abdominal incision. Three hours after ligature of the pylorus, the volumen of gastric juices was measured, the pH was determined by a Beckman Century SS-1 pH-meter.
# [3] = test system: gastric juices; test: Ligature of pylorus, intraduodenal treatment (Table B-2); format: in vivo, Male Wistar rats
# Experimental: as §1
# [4] = 1 mg/kg intraduodenal, lot of 4 rats
# [5] = 1 mg/kg intraduodenal, lot of 5 rats
# [6] = 3 mg/kg intraduodenal, 4 or 5 rats
# [7] = 10 mg/kg intraduodenal, first lot (4 or 5 rats)
# [8] = 10 mg/kg intraduodenal, lot of 8 rats
# [9] = 10 mg/kg intraduodenal, second lot (4 or 5 rats)
compound,measurement,setting,value
"CN(C)Cc1ccc(CSCCNC(=C[N+](=O)[O-])NCCO)o1.Cl [Example 1, (b), N-[2-[[(5-[(dimethylamino)methyl]-2-furanyl)methyl]thio]ethyl]-N'-(2-hydroxyethyl)-2-nitro-1,1-ethenediamine hydrochloride]",selectivity for H2 receptors of rat uterus,[1],selective effect
same,"Volume of gastric juice, percentage decrease relative to control",[2]; first lot (2 or 3 rats),51.9%
same,"pH of gastric juice, percentage increase relative to control",[2]; first lot (2 or 3 rats),263.2%
same,"Total acidity (titration with 0,1N NaOH), percentage decrease relative to control",[2]; lot of 5 rats,89.2%
same,"Volume of gastric juice, percentage decrease relative to control",[2]; lot of 5 rats,62.6%
same,"pH of gastric juice, percentage increase relative to control",[2]; lot of 5 rats,119.2%
same,"Total acidity (titration with 0,1N NaOH), percentage decrease relative to control",[2]; lot of 8 rats,78.2%
same,"Volume of gastric juice, percentage decrease relative to control",[2]; lot of 8 rats,0%
same,"pH of gastric juice, percentage increase relative to control",[2]; lot of 8 rats,134.4%
same,"Total acidity (titration with 0,1N NaOH), percentage increase relative to control",[3]; [4],14%
same,"Volume of gastric juice, percentage increase relative to control",[3]; [4],1%
same,"pH of gastric juice, percentage increase relative to control",[3]; [4],16%
same,"Total acidity (titration with 0,1N NaOH), percentage decrease relative to control",[3]; [5],13%
same,"Volume of gastric juice, percentage decrease relative to control",[3]; [5],15%
same,"pH of gastric juice, percentage increase relative to control",[3]; [5],50%
same,"Total acidity (titration with 0,1N NaOH), percentage decrease relative to control",[3]; [6],58%
same,"Volume of gastric juice, percentage decrease relative to control",[3]; [6],30%
same,"pH of gastric juice, percentage increase relative to control",[3]; [6],25%
same,"Total acidity (titration with 0,1N NaOH), percentage decrease relative to control",[3]; [7],81%
same,"Volume of gastric juice, percentage decrease relative to control",[3]; [7],46%
same,"pH of gastric juice, percentage increase relative to control",[3]; [7],83%
same,"Total acidity (titration with 0,1N NaOH), percentage decrease relative to control",[3]; [8],41%
same,"Volume of gastric juice, percentage decrease relative to control",[3]; [8],2.9%
same,"pH of gastric juice, percentage increase relative to control",[3]; [8],163%
same,"Total acidity (titration with 0,1N NaOH), percentage decrease relative to control",[3]; [9],82%
same,"Volume of gastric juice, percentage decrease relative to control",[3]; [9],57%
same,"pH of gastric juice, percentage increase relative to control",[3]; [9],313%
same,"Total acidity (titration with 0,1N NaOH), percentage decrease relative to control","[3]; 25 mg/kg intraduodenal, 5 rats",85%
same,"Volume of gastric juice, percentage decrease relative to control","[3]; 25 mg/kg intraduodenal, 5 rats",62%
same,"pH of gastric juice, percentage increase relative to control","[3]; 25 mg/kg intraduodenal, 5 rats",170%
